Source: patent US20020132817A1, “Heterocyclic compounds, their production and use” (priority 1998, published 2002)

Tested on: plasma extravasation induced by capsaicin in trachea of guinea pigs
Assay: Inhibitory effect on plasma extravasation induced by capsaicin in trachea of guinea pigs
Assay type: in vivo
Conditions: Cavia porcellus, iv, 5 minutes before capsaicin, Evans' blue dye in trachea, read-out: ID50, μg/kg
Procedure: Inhibitory effect on plasma extravasation induced by capsaicin in trachea of guinea pigs.
Guinea pigs (Hartley type white male guinea pige), (n=6) were anesthetized with 35 mg/kg of pentobarbital injected intraperitoneally (i.p.), then test compounds were administered intravenously (i.v.). After 5 minutes, a mixed solution of capsaicin ([…]) and Evans' blue dye (20 mg/kg) was administered intravenously to cause reaction. Ten minutes later, test animals were sacrificed by cutting the aorta, then perfused through pulmonary artery with 50 ml of physiological saline. The trachea was excised, and its wet weight was measure. The trachea was incubated at room temperature in 1 ml of acetone-0.3% sodium sulfate (7:3) overnight and Evans' blue dye was extracted from the trachea. The extract solution was centrifuged at 2800 rpm for 5 minutes. The amount of Evans' blue dye in the supernatant was quantified by measuring absorbance at […].
The reaction of accelerating the permeability of blood vessels is expressed in terms of the amount of Evans' blue (μg) per trachea unit weight (g) and the effect of drug was evaluated by calculating the degree of inhibition (% inhibition) according to the following equation: […]

Work on Cc1ccc(-c2c3n(c(=O)c4ncccc24)CC[C@@H](C)CN(Cc2cc(C(F)(F)F)cc(C(F)(F)F)c2)C3=O)cc1 [Reference Example 72, (9R)-7-[3,5-Bis(trifluoromethyl)benzyl]-6,7,8,9,10,11-hexahydro-9-methyl-5-(4-methylphenyl)-6,13-dioxo-13H-[1,4]diazocino[2,1-g][1,7]naphthyridine] yielded an ED50 of 2.6 µg/kg.
